Experimental findings from patent EP0374267A1, “DERIVATIVES OF PLATINUM (P) WITH A POLYANION OF DEOXYRIBONUCLEIC ACID, METHOD FOR OBTAINING THEM AND PHARMACEUTICAL ANTITUMOR PREPARATION BASED ON THEM” (priority 1988, dated 1989) are described below.

The series in a line: Solubility.

With “Poly{hexakis [chlor- amminaquaplatin(II)]} - µ - desoxyribonukleat [Verbindung III]”, the “Löslichkeit in einer Lösung, die 18 mMol/l NaCl und 1,8 mMol/l Natriumzitrat enthält” value is recorded as 0,005%. For the same substance, under “20°C”, the “Löslichkeit in Wasser” value is given as 0,0005%.
